{
  "sequences": {"note": "Chains of the proteins cited; added tags and fusions are not shown. Residues count along the entry.", "UniProt Q9WTR4, 1-597": "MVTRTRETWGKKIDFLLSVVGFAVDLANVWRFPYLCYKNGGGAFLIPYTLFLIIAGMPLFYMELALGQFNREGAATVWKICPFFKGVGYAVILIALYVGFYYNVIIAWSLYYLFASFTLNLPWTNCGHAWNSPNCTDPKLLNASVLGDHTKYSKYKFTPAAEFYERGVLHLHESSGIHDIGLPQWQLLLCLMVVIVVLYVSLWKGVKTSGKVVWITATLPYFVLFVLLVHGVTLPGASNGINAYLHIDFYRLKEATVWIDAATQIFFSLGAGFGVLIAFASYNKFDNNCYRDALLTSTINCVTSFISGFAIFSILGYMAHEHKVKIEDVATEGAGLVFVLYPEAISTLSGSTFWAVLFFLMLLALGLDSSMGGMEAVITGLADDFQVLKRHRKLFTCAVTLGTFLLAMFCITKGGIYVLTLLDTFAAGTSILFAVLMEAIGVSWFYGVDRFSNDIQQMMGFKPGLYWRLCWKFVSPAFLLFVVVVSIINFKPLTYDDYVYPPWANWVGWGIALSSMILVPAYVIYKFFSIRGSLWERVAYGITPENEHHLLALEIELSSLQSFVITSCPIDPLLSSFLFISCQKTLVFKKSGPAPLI"},
  "source": "patent EP0591581B1",
  "about": "“N-Alkyl-3-phenyl-3-(2-alkylthiophenoxy)propylamines” (dated 1994)",
  "biological_target": "norepinephrine uptake (Rattus norvegicus, UniProt Q9WTR4)",
  "assay": "Synaptosomal uptake of ³H-norepinephrine in rat cerebral cortex synaptosomes",
  "conditions": "read-out: IC₅₀ NE Uptake; Cortical synaptosomes, 50 nM ³H-NE, 37°C for 5 minutes; IC₅₀ by linear regression analysis",
  "data": [
    {"smiles": "CNCCC(Oc1ccccc1SC)c1ccccc1", "note": "(stereo not shown)", "values": [
      {"measurement": "IC50", "result": 4.4, "unit": "nM"}
    ]}
  ]
}
